The list shows a part of the results, in another mix than the full data. Calls of active or inactive are those of the source.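 Rule for the calls: active = compounds whose signal lies at least 3.5 SD above the mean of all wells on their plate; inactive = the rest.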
experiment: inducers of MIN6 beta-cell proliferation, primary screen, ATP luminescence, uHTS (AID 2380); details: MIN6 cells proliferation, ATPlite luminescence, 48 h; at 10 µM; active compounds read high; 100% = growth in 10% serum; cells starved in 0.2% serum;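 note: 0% = DMSO-treated cells in low-serum medium and 100% = 10% serum control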

SMILES | proliferation
C[C@H]1OP(=O)(Oc2ccccc2)[C@H](O)[C@H](O)[C@H]1N=[N+]=[N-] (stereo partly specified) | inactive: 4.54%
